Experiment: Stabilisation of amidines in aqueous solution by alkane polyols

## Hexylene glycol
  Stabilises Amidines?: No
